According to PubChem BioAssay AID504467 (National Center for Advancing Translational Sciences (NCATS), 2011):
The list shows a part of the results, in another mix than the full data. Records with an inconclusive call do not appear. Activity calls are given as the source filed them. Calls come from the whole dose curve; as a rule, active = well fitted inhibition curve with a large enough effect; inconclusive = small, poorly fitted or top-dose-only effect, or effect the other way; inactive = flat fitted curve, though single readings scatter.

Assay: qHTS screen for small molecules that inhibit ELG1-dependent DNA repair in human embryonic kidney (HEK293T) cells expressing luciferase-tagged ELG1; note: nearly all actives have a fitted effect of over 55% in size
Conditions: HEK293T ELG1-luciferase reporter, luminescence, 16 h, DNA damage induced by 5-fluorouridine; series mostly up to 46.1 µM; activity change, negative = inhibition: at the top concentration
% is set by controls: 0 for no effect and ±100 for the full control effect; potency is the fitted concentration of half-maximal effect.

Row | Compound | activity change, negative = inhibition | Potency
1 | Nc1cc(N)c2nonc2c1[N+](=O)[O-] | inactive: 2.24% | –
2 | CC(C)CC(=O)NC(Sc1ccc(Cl)cc1)C(Cl)(Cl)Cl (configuration not stated) | inactive: 17.2% | –
3 | O=C(NC(Sc1ccncn1)C(Cl)(Cl)Cl)c1ccccc1 (configuration not stated) | inactive: 0.487% | –
4 | COc1ccccc1OP(=O)(Nc1ccc(C)cn1)Oc1ccccc1OC | inactive: -11% | –
5 | CN1CCCC(OC(=O)C(c2ccccc2)c2ccccc2)C1 (configuration not stated) | inactive: -1.36% | –
6 | Clc1ccc(Cl)c(NC2=NCC(CBr)S2)c1 (configuration not stated) | inactive: 8.79% | –
7 | NC(=O)c1cc([N+](=O)[O-])cc([N+](=O)[O-])c1N | inactive: 0% | –
8 | Cc1ccc(N/C(=N/P(=O)(N2CCOCC2)N2CCOCC2)N2CCOCC2)cc1 | inactive: -4.22% | –
9 | CN(C(=O)Cc1ccc(Cl)c(Cl)c1)[C@H]1CCCC[C@H]1N1CCCC1 | inactive: -1.85% | –
10 | CCN(N=Nc1nonc1N)c1nonc1N | inactive: -7.42% | –
11 | Nc1cccc2ccc([As](=O)(O)O)cc12 | inactive: 10.4% | –
12 | Cc1ccc(NP(=O)(Oc2ccccc2F)Oc2ccccc2F)nc1 | inactive: 25% | –
13 | Cc1cc(SC(NC(=O)c2ccc(F)cc2)C(Cl)(Cl)Cl)ncn1 (configuration not stated) | inactive: 8.46% | –
14 | CCOP(=O)(Nc1ccccc1)OCC | – | inactive
15 | CC(=O)Nc1ccc([As](=O)(O)O)cc1 | inactive: 1.19% | –
16 | O=C(O)c1ccccc1[As](=O)(O)O | inactive: -2.1% | –
17 | O=[N+]([O-])c1cccc(NC2=NCC(CBr)S2)c1 (configuration not stated) | inactive: 10.3% | –
18 | O=C(O)CNc1ccc([As](=O)(O)O)cc1 | inactive: 8.85% | –
19 | CC(C)(C)C(=O)NC(Sc1ccncn1)C(Cl)(Cl)Cl (configuration not stated) | inactive: -11.9% | –

Row | Compound | activity change, negative = inhibition | Potency
20 | O=[N+]([O-])c1ncn(CCn2ncnc2[N+](=O)[O-])n1 | inactive: -0.907% | –
21 | CC(C)=N/N=C(\N)N[N+](=O)[O-] | inactive: 4.24% | –
22 | Nc1ccc([As](=O)(O)c2ccc(N)cc2)cc1 | inactive: 5.35% | –
23 | CCN(/C(=N/P(=O)(N1CCOCC1)N1CCOCC1)N1CCOCC1)c1ccc(OC)cc1 | inactive: -3.55% | –
24 | O=[N+]([O-])c1cccc2n[nH]nc12 | inactive: 15.5% | –
25 | CC(=O)N1C2C3N(C(C)=O)C1C1N(C(C)=O)C(C(N1C(C)=O)N3C(C)=O)N2C(C)=O | inactive: 0.267% | –
26 | CCc1nc2c(n1)c1c(non1O)c1c2no[n+]1[O-] | inactive: -17.1% | –
27 | O=[N+]([O-])c1cc([N+](=O)[O-])c(CCNc2ccccc2)c([N+](=O)[O-])c1 | inactive: 1.18% | –
28 | Cc1ccc(NP(=O)(Oc2ccccc2)Oc2ccccc2)nc1 | inactive: -0.979% | –
29 | COc1ccc(C2=NCC(CBr)S2)cc1 (configuration not stated) | inactive: 12% | –
30 | c1nnnn1CCn1cnnn1 | inactive: 7.89% | –
31 | CC(C)C(=O)NC(Sc1ccccc1)C(Cl)(Cl)Cl (configuration not stated) | inactive: -3.7% | –
32 | O=P(Nc1nccs1)(c1ccccc1)c1ccccc1 | inactive: 13.1% | –
33 | C(Cc1nn[nH]n1)Cc1nn[nH]n1 | inactive: -0.0857% | –
34 | Nc1ccc([As](=O)(O)c2ccc([N+](=O)[O-])cc2)cc1 | inactive: -22.8% | –
35 | O=C(OC1CN2CCC1CC2)c1cccc(Cl)c1 (configuration not stated) | inactive: -6.65% | –
36 | O=[N+]([O-])c1ncn(CCn2cnc([N+](=O)[O-])n2)n1 | inactive: 19.4% | –
37 | CC(=O)NC(SC(=S)N(C)C)C(Cl)(Cl)Cl (configuration not stated) | inactive: -13.6% | –
38 | O=[As](O)(c1ccccc1)c1ccc(O)cc1 | inactive: -4.37% | –

Row | Compound | activity change, negative = inhibition | Potency
39 | C[C@H]1OP(=O)(Oc2ccccc2)[C@H](O)[C@H](O)[C@H]1N=[N+]=[N-] (some centres not stated) | inactive: 0.281% | –
40 | O=P(Nc1nc2ccccc2s1)(c1ccccc1)c1ccccc1 | inactive: -1.98% | –
41 | O=P(Nc1ccccn1)(c1ccc(Br)cc1)c1ccc(Br)cc1 | inactive: -12.7% | –
42 | CN(C)C1(CNC(=O)c2ccc(Cl)c(S(N)(=O)=O)c2)CCCCC1 | inactive: -2.31% | –
43 | CC(NC(=O)COC(=O)C(O)(c1ccccc1)c1ccccc1)c1ccccc1 (configuration not stated) | inactive: -11.6% | –
44 | Cc1ccccc1OP(=O)(Nc1ccccn1)Oc1ccccc1C | – | active: 23.1 µM
45 | CC(=O)NC(SC(=S)N(CC(C)C)CC(C)C)C(Cl)(Cl)Cl (configuration not stated) | inactive: 7.18% | –
46 | COC(=O)c1cc2c(s1)N=C(c1ccccc1)N(C)P2(=O)N1CCOCC1 (configuration not stated) | inactive: -4.5% | –
47 | CCC(=O)N1C2C3N(C(=O)CC)C1C1N(C(=O)CC)C(C(N1C(=O)CC)N3C(=O)CC)N2C(=O)CC | inactive: -4.21% | –
48 | O=C(OC1CN2CCC1CC2)c1ccccc1 (configuration not stated) | inactive: 9.95% | –
49 | CCNC(=S)/N=C(\N)N[N+](=O)[O-] | inactive: 9.83% | –
50 | O=C(NC1CCS(=O)(=O)C1)NP(=S)(Oc1ccccc1)Oc1ccccc1 (configuration not stated) | inactive: 8.66% | –
51 | CCOC(=O)NC(Sc1ccccc1)C(Cl)(Cl)Cl (configuration not stated) | inactive: 0.392% | –
52 | Cc1ccc(NP(=O)(Oc2cccc(C)c2)Oc2cccc(C)c2)nc1 | inactive: 0% | –
53 | c1ccc(-c2nn[nH]n2)c(-c2nn[nH]n2)c1 | inactive: 21.4% | –
54 | CC(=O)Nc1ccc(Oc2c([N+](=O)[O-])cc([N+](=O)[O-])cc2[N+](=O)[O-])cc1 | inactive: -7.26% | –
55 | CC(=O)Nc1ccc([As](=O)(O)O)c(O)c1 | inactive: 2.41% | –
56 | CC(=O)c1ccc(N2CC2c2ccncc2)cc1 (configuration not stated) | inactive: 4.11% | –
57 | C[C@H]1OP(=O)(Oc2ccccc2)C[C@@H]2O[C@@H]21 (some centres not stated) | inactive: 2.44% | –
